{"source": "patent US11091496B2", "about": "“Opioid ketal compounds and uses thereof” (priority 2013, dated 2021)", "assay": "Hydrolysis in fresh EDTA stabilized blood plasma at 37° C.", "settings": "mixture of isomers, 1.1 mg, four hour period", "data": [{"substance": "hydrocodone 2,4-pentanediol ketal", "values": [{"measurement": "ketal hydrolyzed to parent opioid in blood plasma", "value": "approximately 0.2%"}]}]}
